The target in the assay is T1, IL-1β (Homo sapiens (Human), UniProt P01584 117-269).
T1 construct: also called IL-1 beta; IL-1b
T1 sequence: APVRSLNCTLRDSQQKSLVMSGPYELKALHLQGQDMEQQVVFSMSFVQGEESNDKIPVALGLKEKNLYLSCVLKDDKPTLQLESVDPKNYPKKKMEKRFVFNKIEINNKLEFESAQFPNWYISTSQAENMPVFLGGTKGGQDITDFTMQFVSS
Nature of the assay: ECL (Origen) competition of complex formation: antibody titrated against biotinylated sIL-1 receptor (1 nM), IL-1β (1 nM), ruthenium-tagged IL-1RacP (5 nM).

B1: chimeric MAb201 (murine MAB201 V regions on human IgG1 / human kappa constant regions) (antibody, V domains shown)
VH: QVTLKESGPGILKPSQTLSLTCSFSGFSLSTSGMGVGWIRQPSGKGLEWLAHIWWDGDESYNPSLKTRLTISKNTSRNQVFLKITTVDTVDTATYFCARNRYDPPWFVDWGQGTLVTVSS
VL: DIQMTQTTSSLSASLGDRVTISCRASQDISNYLSWYQQKPDGTVKLLIYYTSKLHSGVPSRFSGSGSGTDYFLTISNLEQEDIATYFCLQGKMLPWTFGGGTKLEIKR
modifications: partial glycosylation at the Fv region of the heavy chain (site not numbered)
By IC50 is commonly meant the midpoint of a concentration-inhibition curve. A low value points to higher potency. Turning to B1, the 50% inhibitory concentration (IC50) amounted to 0.556 nM.
